These are literature values, as cited in US9175000B2, “Buprenorphine analogs” (dated 2015).

Protein sequences, listed by entry. Tags and fused reporters are not part of them. Lines headed by an entry give the natural chain unless they say otherwise; changes in a name come on top.
UniProt P41146: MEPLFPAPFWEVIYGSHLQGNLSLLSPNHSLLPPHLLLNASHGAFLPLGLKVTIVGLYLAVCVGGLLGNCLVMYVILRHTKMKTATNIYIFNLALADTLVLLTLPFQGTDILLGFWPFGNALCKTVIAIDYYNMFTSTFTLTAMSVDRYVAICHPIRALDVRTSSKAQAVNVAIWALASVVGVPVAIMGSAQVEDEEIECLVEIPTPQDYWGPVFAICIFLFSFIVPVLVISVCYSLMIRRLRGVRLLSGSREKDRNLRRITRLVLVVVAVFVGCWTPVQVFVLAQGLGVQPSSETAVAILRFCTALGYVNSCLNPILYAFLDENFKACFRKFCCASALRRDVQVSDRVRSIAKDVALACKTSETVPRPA

As a reminder, the IC50 is the concentration at which inhibition is half-maximal.

This data set concerns the target ORL-1 (Homo sapiens (Human), UniProt P41146). The settings on record: read-out: IC50 at ORL-1; at least partial agonists for ORL-1; Wnendt et al. 1999.

Consider 7-benzylidenenaltrexone, for which the concentration for half-maximal inhibition (IC50) was 10 µM.
